Screening results from PubChem BioAssay.
In the library only some 2.8% were active in any assay of this set; here they are far more common.
UUG fidelity = alters start codon recognition fidelity in yeast | S. cerevisiae UUG-firefly luciferase reporter, luminescence/redox ratio | activity score, % at 18.7 µM | 350,000 compounds, 0.13% hits | AID 602363;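 active = replicate mean at a twofold rise or more, about +100% in these data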;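 note: firefly luciferase made from a UUG start codon reports start codon fidelity; reporter light over untreated wells divided by growth signal over untreated wells; some hits fall short of that in this replicate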
MITF act = increases MITF-driven TRPM1 promoter luciferase signal; SK-MEL-5 TRPM1-promoter luciferase, 24 h; % of positive control, neutral wells = 0; activation, % at 12.5 µM; AID 588334; hit rate 0.75% among 300,000;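 active = mean activation of at least 80% with every replicate also reaching 80%; inconclusive = mean reaches 80% but some replicate falls short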;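 also: 0% = neutral control wells and 100% = parthenolide positive control wells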
miR122 inh = inhibitors of miR-122 in Huh7 cells; AID 602342; Huh7 miR-122 Renilla luciferase sensor, 48 h; neutral wells = 0, positive control = 100; activation (reporter increase), % at 12.5 µM; hit rate 0.3% among 340,000;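 active = mean replicate activation score at least 90 and every replicate individually at or above 90; inconclusive = only one of the two criteria met; inactive = neither criterion met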;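 also: higher luciferase means less miR-122 activity so hits act as miR-122 inhibitors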
Wnt bcat act = Wnt/beta-catenin pathway activation | Wnt/beta-catenin reporter cell assay, activator, plate reader | hit rate 1.2% among 300,000 | activation, % at 9.35 µM | AID 743398; in the data active = activation above about 30%, passing the limit was not always enough; inconclusive = no clear call, values can overlap the other calls;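 also: 0% = neutral control wells and 100% = positive control wells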
PglD DTNB = blocks C. jejuni PglD acetyltransferase activity | hit rate 0.098% among 360,000 | purified PglD enzyme, DTNB colorimetric CoA detection | inhibition, % at 12.5 µM | AID 602405; in the data active = inhibition above about 16%, passing the limit was not always enough; inconclusive = no clear call, values can overlap the other calls
esBAF inh = blocks esBAF chromatin remodeling in mouse ES cells; Bmi1-luciferase knock-in reporter, 24 h; 100% = twice the neutral-well signal; AID 602393; hit rate 2% among 350,000; reporter increase, % at 12.5 µM; in the data active = activation above about 40%; inconclusive = no clear call, values can overlap the other calls;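 also: 0% = median of the plate's neutral control wells and 100% = double that signal; a rise in the Bmi1 reporter signal indicates esBAF inhibition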
* hit, by the source's call; ? = inconclusive; nt = not tested or not shown; [ ] = remark or other dose.

No.	SMILES	UUG fidelity	MITF act	miR122 inh
1	Cc1nc2cc(NS(=O)(=O)c3c(C)c(C)cc(C)c3C)ccc2s1	0	-21	313*
2	Cc1nc2ccc(NS(=O)(=O)c3c(C)c(C)cc(C)c3C)cc2s1	4	-16	125*
3	COc1ccc(-c2cn(Cc3ccc(C)cc3)nn2)cc1	-11	86*	5
4	COCC(=O)N1C[C@H]2[C@@H](c3ccccc31)[C@@H](CO)N2C(=O)C1CCOCC1	8	nt	4[16.7 µM]
5	CO[C@@H]1CN(C)C(=O)c2cc(NC(=O)NC(C)C)ccc2OC[C@H](C)N(Cc2cncnc2)C[C@H]1C	nt	nt	-33[16.7 µM]
6	Cc1cccnc1NC(=S)Nc1ccc(Br)cc1Cl	-22	58	-3
7	S=C(NCc1ccncc1)Nc1ccc(Br)cc1Cl	-24	-6	62
8	Oc1cccc(Oc2ncc(C(F)(F)F)cc2Cl)c1	nt	15	nt
9	FC(F)(F)c1cnc(Oc2cccc3ccccc23)c(Cl)c1	nt	1	nt
10	Cc1ccc(OCC(=O)N(Cc2ccccc2)c2ccccn2)cc1	nt	4	10
11	Cc1ccc(CC(=O)N(Cc2ccccc2)c2ccccn2)cc1	nt	-4	118*
12	C[C@@H]1CN([C@@H](C)CO)S(=O)(=O)c2ccc(-c3cccc(F)c3)cc2O[C@@H]1CN(C)CC1CC1	37	nt	2[16.7 µM]

No.	Wnt bcat act	PglD DTNB	esBAF inh
1	nt	-5	14
2	3	-4	5
3	29	8	79*
4	nt	2	2
5	nt	7	6
6	11	-5	55*
7	-1	-1	nt
8	64*	nt	nt
9	-1	nt	nt
10	-2	nt	nt
11	-3	nt	-4
12	nt	4	-3

3 entries from above, in transposed form.
5: CO[C@@H]1CN(C)C(=O)c2cc(NC(=O)NC(C)C)ccc2OC[C@H](C)N(Cc2cncnc2)C[C@H]1C
6: Cc1cccnc1NC(=S)Nc1ccc(Br)cc1Cl
7: S=C(NCc1ccncc1)Nc1ccc(Br)cc1Cl

entry no.	5	6	7
UUG fidelity	nt	-22	-24
MITF act	nt	58	-6
miR122 inh	-33[16.7 µM]	-3	62
Wnt bcat act	nt	11	-1
PglD DTNB	7	-5	-1
esBAF inh	6	55*	nt

Further entries:
No.	SMILES	UUG fidelity	MITF act	miR122 inh
13	COc1ccc(NC(=O)Nc2cccc3c2O[C@@H](CN(C)Cc2ccncc2)[C@@H](C)CN([C@@H](C)CO)C3=O)cc1	4	nt	0[16.7 µM]
14	CCCNC(=O)Nc1cccc(NC(C)=O)c1	-12	-7	-1
15	COc1cccc(C(=O)Nc2cccc(C(C)=O)c2)c1	-7	50	11
16	CCCNC(=O)Nc1cccc(C(=O)OC)c1	nt	5	nt
17	COc1cccc(C(=O)NCCn2ccc3ccccc32)c1	-17	nt	-4
18	COc1cc(OC)cc(C(=O)NCCn2ccc3ccccc32)c1	-4	nt	-1
19	COC(=O)c1cccc(NC(=O)c2cccc(OC)c2)c1	2	53	-3
20	COc1cccc(C(=O)Nc2cccc(OC(C)=O)c2)c1	-24	50	nt
21	C[C@@H]1CCCCO[C@@H](CN(C)Cc2ccc(C(=O)O)cc2)[C@H](C)CN([C@H](C)CO)C(=O)c2cc(NS(C)(=O)=O)ccc2O1	-2	nt	-2[16.7 µM]
22	COc1cccc(NC(=O)c2cccc(Cl)c2)c1	-15	104*	9
23	N#Cc1ccccc1OCC(=O)NC(=O)NCc1ccco1	nt	116*	nt
24	N#Cc1ccccc1OCC(=O)NC(=O)NCc1ccccc1	nt	-1	nt

No.	Wnt bcat act	PglD DTNB	esBAF inh
13	nt	3	0
14	1	2	-4
15	1	3	52*
16	34*	nt	nt
17	24	0	71*
18	-3	-1	13
19	28	3	61*
20	20	-1	23
21	nt	2	-5
22	41*	6	71*
23	19	nt	nt
24	0	nt	nt

Following part.
No.	SMILES	UUG fidelity	MITF act	miR122 inh
25	CCNC(=O)NC(=O)COc1ccccc1C#N	-19	93*	-5
26	COc1ccc(CN(C)C[C@H]2Oc3ccc(NS(=O)(=O)c4ccc(OC)cc4)cc3C(=O)N([C@H](C)CO)C[C@H]2C)cc1	15	nt	2[16.7 µM]
27	O=[N+]([O-])c1cc2c(cc1C=Nc1ccccc1)OCO2	-8	-45	-1
28	Sc1oc(-c2ccccc2)cc1C=Nc1ccccc1	-19	23	5
29	Cn1cccc1C(=O)OCc1cc(-c2ccco2)on1	6	98*	nt
30	COc1cc(-c2nnc(COC(=O)c3cccn3C)o2)cc(OC)c1OC	-2	16	-2
31	CC(C)CC#Cc1ccc2c(c1)O[C@@H](CN(C)C(=O)c1cccc(F)c1)[C@@H](C)CN([C@H](C)CO)S2(=O)=O	-6	nt	6[16.7 µM]
32	CC[N+](C)(CC)CCC/C(=N/O)C(O)(c1ccccc1)c1ccccc1	-12	nt	-7
33	CC(=O)Nc1cccc(OCCCOc2ccc([N+](=O)[O-])cc2)c1	nt	19	nt
34	CC(=O)Nc1cccc(OCc2ccc([N+](=O)[O-])cc2)c1	nt	nt	nt
35	CC(=O)Nc1cccc(NC(=O)c2ccc(COc3ccccc3)cc2)c1	-9	154*	-5
36	CCCNC(=O)N1C[C@@H](O)COC[C@@H]2O[C@H](CC(=O)N3CCC(Cc4ccccc4)CC3)CC[C@H]21	nt	nt	-2[16.7 µM]

No.	Wnt bcat act	PglD DTNB	esBAF inh
25	nt	2	91*
26	nt	-3	0
27	nt	-4	0
28	nt	3	85*
29	27	1	83*
30	-2	2	nt
31	nt	0	4
32	33*	0	nt
33	1	nt	nt
34	43*	nt	nt
35	-2	-1	98*
36	nt	-3	0

(further entries)
No.	SMILES	UUG fidelity	MITF act	miR122 inh
37	C[C@@H]1CN([C@H](C)CO)C(=O)Cc2cc(NS(=O)(=O)c3ccc(Cl)cc3)ccc2O[C@@H]1CN(C)C(=O)Nc1cccc2ccccc12	-5	nt	-6[16.7 µM]
38	Cn1ccnc1SCC(=O)c1ccc2ccccc2c1	nt	88*	nt
39	COc1cccc(C(=O)CSc2nccn2C)c1	-20	nt	-6
40	Cn1ccnc1SCC(=O)c1cccc(Br)c1	-18	61	4
41	COCCOC(=O)N1C(=O)[C@@]2(c3ccccc31)[C@H](c1ccc(OCCO)cc1)N1[C@H](c3ccccc3)[C@H](c3ccccc3)OC(=O)[C@H]1[C@@H]2C(=O)N1CCN(c2ncccn2)CC1	-10	nt	nt
42	COc1cccc(C(=O)Nc2ccc3c(c2)C(=O)N(C)[C@H]2CC[C@H](CC(=O)NCC(F)(F)F)O[C@H]2CO3)c1	nt	nt	35[16.7 µM]
43	COc1ccc(NC(=O)N(C)C[C@@H]2Oc3ccc(NS(=O)(=O)c4c(C)noc4C)cc3CC(=O)N([C@@H](C)CO)C[C@H]2C)cc1	4	nt	-1[16.7 µM]
44	CNC[C@@H]1Oc2ncc(C3=CCCC3)cc2C(=O)N([C@H](C)CO)C[C@@H]1C	nt	nt	-1[16.7 µM]
45	CCOC(=O)c1ccc(S(=O)(=O)NC2CCCCCCC2)n1C	-2	3	128*
46	COc1cccc(NC(=O)N2C[C@@H](O)COC[C@H]3O[C@H](CC(=O)NC4Cc5ccccc5C4)CC[C@@H]32)c1	nt	nt	-4[16.7 µM]
47	C[C@@H]1CCCCO[C@H](CN(C)Cc2ccc3c(c2)OCO3)[C@H](C)CN([C@@H](C)CO)C(=O)c2cc(NC(=O)Cc3ccccc3)ccc2O1	28	nt	-5[16.7 µM]
48	CN(Cc1cccs1)C(=O)c1ccc(S(=O)(=O)N2CCCCC2)cc1	0	0	nt

No.	Wnt bcat act	PglD DTNB	esBAF inh
37	nt	-2	-1
38	50*	nt	nt
39	6	-1	44*
40	nt	3	30
41	nt	12	nt
42	nt	4	3
43	nt	-1	-2
44	nt	nt	nt
45	-2	4	-3
46	nt	-1	-5
47	nt	2	6
48	-3	4	nt

(listing goes on)
No.	SMILES	UUG fidelity	MITF act	miR122 inh
49	Cc1ccc(CN(C)C(=O)c2ccc(S(=O)(=O)N3CCCCCC3)cc2)o1	-6	13	5
50	CCN(CC)C(=O)c1cc(-c2ccc(Br)cc2)on1	-13	?	4
51	COC(=O)c1cc(-c2ccc(Br)cc2)on1	-12	nt	nt
52	CCN(CC)c1ccc(/C=N/n2nnnc2N)c(O)c1	-7	20	-6
53	CCN(C)c1ccc(/C=N\n2nnnc2N)cc1	-13	28	6

No.	Wnt bcat act	PglD DTNB	esBAF inh
49	36*	1	-2
50	nt	1	75*
51	15	0	-3
52	nt	-10	44*
53	nt	-1	nt

One compound at a time (already shown). Order of values: UUG fidelity | MITF act | miR122 inh | Wnt bcat act | PglD DTNB | esBAF inh
Record of `COC(=O)c1cc(-c2ccc(Br)cc2)on1` → -12 | nt | nt | 15 | 0 | -3
Record of `Cc1ccc(CN(C)C(=O)c2ccc(S(=O)(=O)N3CCCCCC3)cc2)o1` → -6 | 13 | 5 | 36* | 1 | -2
